Test system: keratin in hair

Ammonium hydroxide [reference compound]
% Relative damage level compared to NaOH (TVirgin-TAlkalizer)/(TVirgin-TNaOH): 19.52%

From patent US20220362122A1, “Hair Treatment Compositions With Amine Derivatives” (ELC Management LLC, priority 2021, published 2022)
